Source: patent publication US11298361B2, “Fused benzazepines for treatment of Tourette's Syndrome” (EMALEX BIOSCIENCES, INC., priority 2012, dated 2022)

By UniProt entry, the sequences of proteins in these tests, tags left out.
UniProt P61169, whole entry: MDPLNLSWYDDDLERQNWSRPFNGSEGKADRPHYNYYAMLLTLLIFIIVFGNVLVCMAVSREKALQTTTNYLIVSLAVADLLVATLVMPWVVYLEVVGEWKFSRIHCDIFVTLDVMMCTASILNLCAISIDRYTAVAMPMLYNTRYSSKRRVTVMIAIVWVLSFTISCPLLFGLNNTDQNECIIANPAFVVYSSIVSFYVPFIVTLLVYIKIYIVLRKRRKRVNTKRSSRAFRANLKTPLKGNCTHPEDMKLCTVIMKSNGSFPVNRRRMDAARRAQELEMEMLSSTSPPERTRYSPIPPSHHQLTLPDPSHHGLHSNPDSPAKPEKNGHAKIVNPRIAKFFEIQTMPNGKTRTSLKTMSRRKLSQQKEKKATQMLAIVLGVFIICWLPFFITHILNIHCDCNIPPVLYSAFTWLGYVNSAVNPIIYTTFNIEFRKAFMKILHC
UniProt P14416, whole entry: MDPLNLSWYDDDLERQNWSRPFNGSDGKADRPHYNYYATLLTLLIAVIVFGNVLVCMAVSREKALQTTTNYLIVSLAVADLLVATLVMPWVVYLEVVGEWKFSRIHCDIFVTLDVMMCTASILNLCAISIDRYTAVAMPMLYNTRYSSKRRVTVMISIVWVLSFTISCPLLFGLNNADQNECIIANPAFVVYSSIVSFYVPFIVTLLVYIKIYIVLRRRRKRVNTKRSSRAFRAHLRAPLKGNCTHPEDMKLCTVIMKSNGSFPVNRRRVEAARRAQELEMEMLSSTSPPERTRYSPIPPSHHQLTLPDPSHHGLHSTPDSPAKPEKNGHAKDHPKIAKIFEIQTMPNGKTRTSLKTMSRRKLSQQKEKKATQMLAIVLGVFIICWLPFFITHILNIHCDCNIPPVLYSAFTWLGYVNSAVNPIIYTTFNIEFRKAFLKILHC
UniProt P21917, whole entry: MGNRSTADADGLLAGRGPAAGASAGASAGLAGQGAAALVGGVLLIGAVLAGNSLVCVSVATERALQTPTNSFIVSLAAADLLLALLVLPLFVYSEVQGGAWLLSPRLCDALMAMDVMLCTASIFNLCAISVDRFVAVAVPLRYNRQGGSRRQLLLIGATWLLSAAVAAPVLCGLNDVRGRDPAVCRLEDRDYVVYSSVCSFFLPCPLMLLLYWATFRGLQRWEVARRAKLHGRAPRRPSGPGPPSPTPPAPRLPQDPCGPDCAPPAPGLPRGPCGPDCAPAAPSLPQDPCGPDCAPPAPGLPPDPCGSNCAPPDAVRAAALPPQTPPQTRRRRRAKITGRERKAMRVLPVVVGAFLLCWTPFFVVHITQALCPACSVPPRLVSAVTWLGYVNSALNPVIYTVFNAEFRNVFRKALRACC
UniProt P35462, whole entry: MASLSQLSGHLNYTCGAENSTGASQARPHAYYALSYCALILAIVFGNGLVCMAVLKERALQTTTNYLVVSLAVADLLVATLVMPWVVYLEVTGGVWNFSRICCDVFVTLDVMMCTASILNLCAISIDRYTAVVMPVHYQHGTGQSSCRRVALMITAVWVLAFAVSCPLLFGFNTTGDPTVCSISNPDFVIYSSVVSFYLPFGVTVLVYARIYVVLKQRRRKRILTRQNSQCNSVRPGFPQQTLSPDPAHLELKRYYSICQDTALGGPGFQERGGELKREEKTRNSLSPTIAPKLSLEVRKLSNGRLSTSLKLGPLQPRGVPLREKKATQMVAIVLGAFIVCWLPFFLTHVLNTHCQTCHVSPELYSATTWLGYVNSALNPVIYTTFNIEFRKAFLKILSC
UniProt P14842, whole entry: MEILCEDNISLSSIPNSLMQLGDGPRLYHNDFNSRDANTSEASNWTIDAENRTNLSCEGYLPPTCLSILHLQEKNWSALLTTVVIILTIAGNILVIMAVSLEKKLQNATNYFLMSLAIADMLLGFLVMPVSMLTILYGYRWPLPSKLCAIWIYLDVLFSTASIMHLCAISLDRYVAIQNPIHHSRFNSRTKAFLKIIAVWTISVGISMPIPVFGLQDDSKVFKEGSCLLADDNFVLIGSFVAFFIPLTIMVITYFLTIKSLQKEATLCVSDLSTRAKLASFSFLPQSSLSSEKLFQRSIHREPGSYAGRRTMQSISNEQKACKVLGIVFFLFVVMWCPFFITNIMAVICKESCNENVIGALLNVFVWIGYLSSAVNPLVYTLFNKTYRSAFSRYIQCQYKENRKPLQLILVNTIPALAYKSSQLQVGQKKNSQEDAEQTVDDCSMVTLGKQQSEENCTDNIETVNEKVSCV

What was measured:
D2 receptor = D2 receptor (Rattus norvegicus, UniProt P61169); assay: Binding versus D2-selective ligand ^3H-spiperone; conditions: versus ^3H-spiperone
hD2 receptor = target: T1, hD2 receptor (Homo sapiens, UniProt P14416); assay: Binding to cloned human receptors
T1 construct: expressed in transfected cells
Method: (§1) Activation of D1 receptors by dopamine and similar agonists stimulates the production of cyclic AMP (cAMP) via activation of adenylate cyclase. In vitro studies on this neuronal second messenger confirmed that ecopipam was an antagonist. […] To ensure that there was no species specificity to the receptor binding profile, ecopipam's potency and selectivity were evaluated using cloned human receptors. Ecopipam bound with high affinity to hD1/hD5 receptors, but was >700-fold selective versus the hD2, hD3, and hD4 receptors. Positron emission tomography (PET) studies using radiolabeled ecopipam have been conducted in healthy volunteers (Karlsson et al., Psychopharmacol. 121:300-308, 1995).

hD4 receptor = hD4 receptor (Homo sapiens, UniProt P21917); assay: Binding to cloned human receptors
Method: as §1, with “cyclase.” for “cyclase. In vitro studies on this neuronal second messenger confirmed that ecopipam was an antagonist.”, “Ecopipam bound with high affinity to hD1/hD5 receptors, but was >700-fold selective versus the hD2, hD3, and hD4 receptors.” left out

hD3 receptor = hD3 receptor (Homo sapiens, UniProt P35462); assay: Binding to cloned human receptors
Method: as §1, with “cyclase.” for “cyclase. In vitro studies on this neuronal second messenger confirmed that ecopipam was an antagonist.”, “Ecopipam bound with high affinity to hD1/hD5 receptors, but was >700-fold selective versus the hD2, hD3, and hD4 receptors.” left out

serotonin receptor = serotonin receptor (Rattus norvegicus, UniProt P14842); assay: Binding versus ^3H-ketanserin

## CN1CCc2cc(Cl)c(O)cc2[C@H]2c3ccccc3CC[C@@H]21 [ecopipam, (−)-trans-6,7,7a,8,9,13b-hexahydro-3-chloro-2-hydroxy-N-methyl-5H-benzo [d]-naphtho-[2,1-b]azepine]
D2 receptor
  Selectivity for the D1 vs. the D2 receptor: roughly 1000 fold
hD2 receptor
  Selectivity versus hD2 receptor: > 700 fold
hD4 receptor
  Selectivity versus hD4 receptor: > 700 fold
hD3 receptor
  Selectivity versus hD3 receptor: > 700 fold
Serotonin receptor
  Selectivity versus the serotonin receptor: ~100 fold
